Our source for the IC50 values is ChEMBL document CHEMBL4602621, “Optimization of cyclic sulfamide derivatives as 11β-hydroxysteroid dehydrogenase 1 inhibitors for the potential treatment of ischemic brain injury” (Bioorg Med Chem Lett, 2020).

By UniProt entry, the sequences of proteins in these tests, tags left out. Where a name states a change or a piece, a line headed by the entry shows the natural chain unless it says otherwise.
UniProt P28845: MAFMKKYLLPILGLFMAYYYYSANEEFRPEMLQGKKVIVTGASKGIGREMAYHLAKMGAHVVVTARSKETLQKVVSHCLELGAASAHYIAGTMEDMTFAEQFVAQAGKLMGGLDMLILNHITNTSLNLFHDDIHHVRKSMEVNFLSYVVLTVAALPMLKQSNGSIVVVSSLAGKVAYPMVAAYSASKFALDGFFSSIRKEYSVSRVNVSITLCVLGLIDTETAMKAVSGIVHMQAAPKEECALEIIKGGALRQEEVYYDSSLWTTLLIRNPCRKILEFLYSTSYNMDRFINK

This test deals with 11-beta-hydroxysteroid dehydrogenase 1 (Homo sapiens, UniProt P28845). The test is described as follows: Inhibition of human 11beta-HSD1 expressed in CHOK1 cells using XL665-labeled cortisol as substrate measured after 24 hrs by HTRF assay. In kind it is cell-based, CHO-K1.

SMILES strings stand for the structures.

One may read the IC50 as the midpoint of a concentration-inhibition curve. High values mean a need for much substance, low ones inhibition by little substance. Take `CC1(C)[C@@H](OC(=O)CCC(=O)O)CC[C@]2(C)[C@H]3C(=O)C=C4[C@@H]5C[C@@](C)(C(=O)O)CC[C@]5(C)CC[C@@]4(C)[C@]3(C)CC[C@@H]12` [CARBENOXOLONE]: the IC50 stood at 1630 nM.
